These results are taken from paper PMC9913351, “Computational Approach to Drug Penetration across the Blood-Brain and Blood-Milk Barrier Using Chromatographic Descriptors” (Cells, 2023).

By UniProt entry, the sequences of proteins in these tests, tags left out. Residues count along the entry.
UniProt P02769, 25-607: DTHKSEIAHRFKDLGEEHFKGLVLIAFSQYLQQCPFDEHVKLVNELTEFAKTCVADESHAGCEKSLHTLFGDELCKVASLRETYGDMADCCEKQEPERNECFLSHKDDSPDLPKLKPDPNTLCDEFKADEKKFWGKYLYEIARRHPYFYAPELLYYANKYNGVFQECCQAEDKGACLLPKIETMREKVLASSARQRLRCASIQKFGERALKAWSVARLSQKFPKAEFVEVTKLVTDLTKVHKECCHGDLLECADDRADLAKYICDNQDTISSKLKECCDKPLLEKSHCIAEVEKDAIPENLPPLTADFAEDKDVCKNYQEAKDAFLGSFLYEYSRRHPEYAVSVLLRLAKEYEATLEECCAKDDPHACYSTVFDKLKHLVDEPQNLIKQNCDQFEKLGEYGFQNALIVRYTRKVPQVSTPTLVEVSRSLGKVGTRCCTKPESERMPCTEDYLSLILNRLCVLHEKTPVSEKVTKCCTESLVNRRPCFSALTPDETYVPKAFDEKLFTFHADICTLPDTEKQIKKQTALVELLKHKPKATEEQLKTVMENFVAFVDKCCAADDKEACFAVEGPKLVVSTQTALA

Series [1] deals with T1, bovine serum albumin BSA (Bos taurus, UniProt P02769).
T1 construct: purchased Sigma Aldrich
Kind of series: NP TLC on silica gel plates impregnated with bovine serum albumin. In kind it is in vitro ADME. The note with it: Rf from BSA-modified NP plate / Rf from clear one (control).

For series [2], the target named is T1, bovine serum albumin BSA. Kind of series: RP TLC on silanized RP-2 plates impregnated with bovine serum albumin. The series is classed as in vitro ADME. Particulars: Rf from BSA-modified RP-2 plate / Rf from clear one (control).
Details of series [3]: method as in earlier work. Particulars: code describing the acid-base properties; source Chembl; cited from earlier work.
Wherever a/b/n code is given: key: (-1) - acids; (0) - neutrals; (1) - bases.

As for `CO[C@H]1/C=C/O[C@@]2(C)Oc3c(C)c(O)c4c(O)c(c(/C=N/N5CCN(C)CC5)c(O)c4c3C2=O)NC(=O)/C(C)=C\C=C\[C@H](C)[C@H](O)[C@@H](C)[C@@H](O)[C@@H](C)[C@H](OC(C)=O)[C@@H]1C` [rifampicin], the NP/C in series [1] is given as 1.05. The molecule further yielded an RP/C in series [2] of 0.99. Further, in series [3], the a/b/n code was -1.
